Assay results: BindingDB's records for doi:10.1016/j.bmcl.2004.02.022 (Pfizer, 2004)
pIC50: −log10 of the molar value.

Assay: Inhibition of CCL3 induced chemotaxis in human T lymphocytes

pIC50: 7.19
SMILES: CC(C)(O)CCC(C[C@H](O)[C@H](Cc1cccc(F)c1)NC(=O)c1cnc2ccccc2n1)C(N)=O (stereo partly drawn) [Quinoxaline-2-carboxylic acid [(1S,2S)-4-carbamoyl-1-(3-fluoro-benzyl)-2,7-dihydroxy-7-methyl-octyl]-amide]
